Ab-14 heavy chain CDR variants: yeast mating affinities

Data: MIT Lincoln Laboratory AlphaSeq set, Engelhart et al. 2022, doi:10.1038/s41597-022-01779-4, as distributed in FLAb.

Target peptide (SARS-CoV-2 spike, HR2 region): PDVDLGDISGINAS

Parent: Ab-14, a human scFv built as VH, the linker GGGGSGGGGSGGGGS, VL. Only the CDRs of the heavy chain vary.
VH: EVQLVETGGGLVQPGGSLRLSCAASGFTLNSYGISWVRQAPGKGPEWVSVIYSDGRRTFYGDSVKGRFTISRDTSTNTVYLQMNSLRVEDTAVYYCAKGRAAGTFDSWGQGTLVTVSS
VL: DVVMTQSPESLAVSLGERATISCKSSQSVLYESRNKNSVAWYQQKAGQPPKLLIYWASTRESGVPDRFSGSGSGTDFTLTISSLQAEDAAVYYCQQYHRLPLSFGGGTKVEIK

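Phage display of a naive human antibody library on the peptide gave the parent. AAYL49 was designed without a model: most single CDR substitutions and a random sample of double and triple ones. Affinity was read by AlphaSeq, a pooled yeast mating assay with surface-displayed partners. Pairs that bind mate more often; barcode pairs of the diploids are counted by sequencing. Each replicate has its own calibration line, from reference interactions of the BCL2 family. The assay was run in three technical replicates.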

Each variant is given by its three heavy chain CDRs, as the data file delimits them; those of the parent are GFTLNSYGIS, VIYSDGRRTFYGDSVK, GRAAGTFDS. The read-out is the apparent dissociation constant on a log10 scale (nM): the lower, the stronger. An entry "ND" has no value in the source: the pair was not observed among the diploids in that replicate. This suggests poor binding but is not conclusive. Empty control strains, which show no peptide, gave a signal in 15% of pairings with library AAYL49; the median was 4.06 and 95% of these signals were weaker than 2.83. No background was subtracted. Also given: how often the same scFv was detected with the empty control strains, with their mean in brackets.

{"CDR-H1": "GFTLNSYGIS", "CDR-H2": "VIYSCGRRTFYGDEVK", "CDR-H3": "GHAAGTFDS", "log10 Kd (nM) by replicate": "ND / ND / ND", "empty controls": "0/9"}
{"CDR-H1": "NFTLNSYGIS", "CDR-H2": "VIISDGRRTVYGDSVK", "CDR-H3": "GRAAGTFDS", "log10 Kd (nM) by replicate": "6.00 / 3.90 / ND", "empty controls": "4/9 (4.19)"}
{"CDR-H1": "GFTLNSYNIS", "CDR-H2": "VIWSDGRRTFYGDSVK", "CDR-H3": "GRAAGTGDS", "log10 Kd (nM) by replicate": "4.60 / 4.74 / 5.98", "empty controls": "6/9 (4.88)"}
{"CDR-H1": "GFELNSYGIA", "CDR-H2": "VYYSDGRRTFYGDSVK", "CDR-H3": "GRAAGTFDS", "log10 Kd (nM) by replicate": "ND / ND / ND", "empty controls": "2/9 (2.86)"}
{"CDR-H1": "GFTLNSYGIS", "CDR-H2": "VIYSDGRETFYGDKVK", "CDR-H3": "GHAAGTFDS", "log10 Kd (nM) by replicate": "ND / 5.74 / ND", "empty controls": "3/9 (4.96)"}
{"CDR-H1": "GFTLNSYGIS", "CDR-H2": "VIYSPGRRTLYGDSVK", "CDR-H3": "GMAAGTFDS", "log10 Kd (nM) by replicate": "ND / ND / ND", "empty controls": "0/9"}
{"CDR-H1": "GCTLNSYGIS", "CDR-H2": "VIYSDGRFTFYGDSCK", "CDR-H3": "GRAAGTFDS", "log10 Kd (nM) by replicate": "ND / ND / ND", "empty controls": "1/9 (3.31)"}
{"CDR-H1": "GFTLNSYGIS", "CDR-H2": "VHYSDGRRCCYGDSVK", "CDR-H3": "GRAAGTFDS", "log10 Kd (nM) by replicate": "ND / ND / ND", "empty controls": "1/9 (4.91)"}
{"CDR-H1": "GFTLNSYGIS", "CDR-H2": "VIYSDGRRDFYGDSVI", "CDR-H3": "GRAAGTFIS", "log10 Kd (nM) by replicate": "ND / ND / ND", "empty controls": "3/9 (3.95)"}
{"CDR-H1": "GFTLNSYGRS", "CDR-H2": "VIYSRGRRTFYGDSVK", "CDR-H3": "GRAAGTFDS", "log10 Kd (nM) by replicate": "ND / ND / ND", "empty controls": "1/9 (3.27)"}
{"CDR-H1": "GFTLPSYGIS", "CDR-H2": "VIYSDGRRTFYGDSVK", "CDR-H3": "GNAAGTFDM", "log10 Kd (nM) by replicate": "1.32 / 1.34 / 1.41", "empty controls": "2/9 (3.19)"}
{"CDR-H1": "GFTLPYYGIS", "CDR-H2": "VIQSDGRRTFYGDSVK", "CDR-H3": "GRAAGTFDS", "log10 Kd (nM) by replicate": "5.38 / 3.98 / 5.57", "empty controls": "5/9 (4.35)"}
{"CDR-H1": "GFTLNSYGIS", "CDR-H2": "VGYSDGRCTFYGDSVK", "CDR-H3": "GRAAGTFDS", "log10 Kd (nM) by replicate": "ND / ND / ND", "empty controls": "3/9 (3.87)"}
{"CDR-H1": "GFTLNSYGIS", "CDR-H2": "VIYFDGRRTFYGDKVK", "CDR-H3": "GRAAGAFDS", "log10 Kd (nM) by replicate": "ND / ND / ND", "empty controls": "0/9"}
{"CDR-H1": "GFTVNSYGIS", "CDR-H2": "VIYSDDRRTFYGDSVK", "CDR-H3": "LRAAGTFDS", "log10 Kd (nM) by replicate": "ND / ND / 4.97", "empty controls": "0/9"}
{"CDR-H1": "GFHLNSQGIS", "CDR-H2": "VIYSDGRRTFYGDSVK", "CDR-H3": "GRAAGTFDS", "log10 Kd (nM) by replicate": "2.74 / ND / 3.01", "empty controls": "2/9 (3.22)"}
{"CDR-H1": "GFDLNSYGIS", "CDR-H2": "VIYSDGRRTFMGDSVK", "CDR-H3": "GRAYGTFDS", "log10 Kd (nM) by replicate": "0.78 / 0.83 / 0.73", "empty controls": "0/9"}
{"CDR-H1": "GFTLNSYGIS", "CDR-H2": "VIYSDGRVTFYGDPVK", "CDR-H3": "GRAAGTFDN", "log10 Kd (nM) by replicate": "ND / ND / ND", "empty controls": "0/9"}

The first 2 variants above that were never detected:

{"CDR-H1": "GFTLNSYGIS", "CDR-H2": "VIYSCGRRTFYGDEVK", "CDR-H3": "GHAAGTFDS", "log10 Kd (nM) by replicate": "ND / ND / ND", "empty controls": "0/9"}
{"CDR-H1": "GFELNSYGIA", "CDR-H2": "VYYSDGRRTFYGDSVK", "CDR-H3": "GRAAGTFDS", "log10 Kd (nM) by replicate": "ND / ND / ND", "empty controls": "2/9 (2.86)"}